{
  "source": "ChEMBL document CHEMBL5126633",
  "about": "“Developing HDAC4-Selective Protein Degraders To Investigate the Role of HDAC4 in Huntington's Disease Pathology” (J Med Chem, 2022)",
  "experiment": "Inhibition of class 2a HDAC in human Jurkat E6.1 cells using Boc-Lys(TFA)-AMC as substrate incubated for 24 hrs by plate reader assay",
  "type": "cell-based",
  "settings": "Jurkat E6.1, 24 h",
  "data": [
    {"smiles": "CCCN(CCC)C[C@@H](C)NC(=O)c1ccc(-c2noc(C(F)(F)F)n2)cc1", "values": [
      {"measurement": "IC50", "value": 24, "unit": "nM"}
    ]}
  ]
}
